# Binding of CDR-mutated scFvs to a peptide of the spike HR2 region

Data: MIT Lincoln Laboratory AlphaSeq set, Li et al. 2023, doi:10.1038/s41467-023-39022-2, as distributed in FLAb.

Antigen: PDVDLGDISGINAS, a 14-residue peptide of the SARS-CoV-2 spike HR2 region.

Each scFv is VH, the linker GGGGSGGGGSGGGGS, VL, as in the parent Ab-14, and differs from it in the CDRs of the heavy chain only.
VH: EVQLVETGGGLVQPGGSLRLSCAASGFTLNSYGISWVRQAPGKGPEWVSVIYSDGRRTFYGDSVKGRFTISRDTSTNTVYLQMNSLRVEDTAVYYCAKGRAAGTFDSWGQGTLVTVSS
VL: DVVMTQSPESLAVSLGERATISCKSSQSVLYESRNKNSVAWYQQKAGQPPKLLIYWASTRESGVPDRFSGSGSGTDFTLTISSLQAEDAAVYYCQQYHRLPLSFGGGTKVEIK

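The starting antibody came from a phage panning campaign against this peptide. The variants were designed computationally from a first round of random CDR variants and then made and measured. Group labels follow the data file (Ctrl: baseline library sampled from a position-specific scoring matrix, with some repeated check sequences; Rand: our label for a block that the file lists under HC and that is probably the random mutants of the ten best first-round binders; GP: Gaussian process model; GPLM: also part of the Gaussian process libraries; HC: hill climbing; Gen: genetic algorithm; Gibbs: Gibbs sampling; a sequence that several methods proposed may carry one label only). AlphaSeq pools MATa yeast showing the antibodies with MATalpha yeast showing the peptide. After mating in shaken culture at 30 °C for 16 h, diploids were selected and their barcode pairs sequenced. A regression on co-assayed BCL2-family reference pairs converts the normalised counts of each replicate to an apparent Kd. There are six technical replicates.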

Positions count from residue 1 of the parent VH; T28S puts S in place of T. This list holds designs with at most six substitutions. Each Kd is an estimate from the mating assay, the geometric mean of the replicates in which the pair was seen; lower is stronger. Where no diploid with the target was found in any replicate, the entry reads "no signal": below detection, most likely a poor binder, though not proof of it. A sequence measured in both rounds can read differently, since the two assays cover different ranges. The parent sequence was in this pool as ten entries: three were never detected, three once, and four in most replicates, with averages from 2.2 nM to 240 nM. Background: pairings of all heavy chain designs with three empty control strains gave a value in 1% of cases (median 120 nM, 5th percentile 7.0 nM). Values in that range, when seen in few replicates, are hard to tell from nonspecific mating. Also given: how often the same scFv was detected with the empty control strains. The authors averaged sequences with at least three values out of six and counted those with two or fewer as poor binders.

The variant T28S/S31D/A101Q/S107T [GP_Gen] showed 1.1 nM (6 of 6 replicates; controls 2 of 18).
The variant G61K [Ctrl] showed 53 nM (4 of 6 replicates; controls 1 of 18).
The variant G61T/S63D [Ctrl] showed 12 nM (1 of 6 replicates; controls 0 of 18).
The variant G26T/A101N [Ctrl] showed no signal (0 of 6 replicates; controls 0 of 18).
The variant T28S/G61V/R100E [GPLM_Gen] showed 16 nM (6 of 6 replicates; controls 0 of 18).
The variant T28S/S31E/A101S/S107K [GPLM_Gen] showed 990 pM (6 of 6 replicates; controls 0 of 18).
The variant S31E/A101N/S107W [Ctrl] showed 38 nM (2 of 6 replicates; controls 0 of 18).
The variant T28E/S53A/R100F [GPLM_Gen] showed 1.3 nM (6 of 6 replicates; controls 0 of 18).
The variant G61M/G103W [Ctrl] showed no signal (0 of 6 replicates; controls 0 of 18).
The variant T28N/F59A/G61Q [GP_HC] showed 3.2 nM (6 of 6 replicates; controls 0 of 18).
The variant S31D/F59Q/G61K/G99L [Rand] showed no signal (0 of 6 replicates; controls 0 of 18).
The variant T28Q/S31D/F59Q/G61I [GPLM_HC] showed 12 nM (6 of 6 replicates; controls 1 of 18).
The variant T28S/S31N/G61T/R100Q [GPLM_Gen] showed 1.8 nM (6 of 6 replicates; controls 2 of 18).
The variant T28G/G61I/R100K [GPLM_Gibbs] showed no signal (0 of 6 replicates; controls 0 of 18).
The variant T28D/A101K/D106E [GP_HC] showed 180 nM (3 of 6 replicates; controls 0 of 18).
The variant T28S/S31D/A101T/S107Q [GPLM_Gen] showed 4.8 nM (6 of 6 replicates; controls 0 of 18).
The variant S31E/G61Q/A101I/G103I [Ctrl] showed no signal (0 of 6 replicates; controls 0 of 18).
The variant R56L/G103V [Ctrl] showed no signal (0 of 6 replicates; controls 0 of 18).
The variant N30M/S31M/S107W [Ctrl] showed no signal (0 of 6 replicates; controls 0 of 18).
The variant T28G/S31E/G61T/A101T [GPLM_Gen] showed 99 pM (5 of 6 replicates; controls 0 of 18).
The variant T28S/G61A/R100K/A101E [GPLM_Gen] showed 450 pM (6 of 6 replicates; controls 1 of 18).
The variant T28S/G61I/R100T/A101Q [GPLM_Gibbs] showed 2.3 nM (6 of 6 replicates; controls 0 of 18).
The variant T28N/F59A/A101H [GP_Gibbs] showed no signal (0 of 6 replicates; controls 0 of 18).
The variant T28A/A101V/G103C [Ctrl] showed no signal (0 of 6 replicates; controls 0 of 18).
The variant T28S/G61A/R100Q/A101T/S107A [GP_Gibbs] showed 980 pM (6 of 6 replicates; controls 1 of 18).
The variant T28P/S31E/R100Q [GP_Gen] showed 6.4 nM (6 of 6 replicates; controls 0 of 18).
The variant I51M [Ctrl] showed 9.7 nM (1 of 6 replicates; controls 0 of 18).
The variant G61A/D62Q/R100E [Ctrl] showed 43 nM (5 of 6 replicates; controls 1 of 18).
The variant S31E/A101E/S107M [GP_HC] showed 8.8 nM (6 of 6 replicates; controls 0 of 18).
The variant S31E/R56T/G61T/A101F [GPLM_HC] showed 470 nM (3 of 6 replicates; controls 0 of 18).
The variant S31D/A101Y [GPLM_Gen] showed 8.2 nM (5 of 6 replicates; controls 0 of 18).
The variant T28N/S63M/A101Q [GP_Gen] showed no signal (0 of 6 replicates; controls 0 of 18).
The variant N30E/G61Q/R100Q [GP_Gen] showed 680 pM (2 of 6 replicates; controls 0 of 18).
The variant T28E/S31E/G61T/S63R/R100E [GP_HC] showed 18 nM (4 of 6 replicates; controls 0 of 18).
The variant S31Q/F59A/G61A [GPLM_HC] showed 1.5 nM (6 of 6 replicates; controls 0 of 18).
The variant T28D/G61A/A101N [GPLM_Gen] showed 1.2 nM (6 of 6 replicates; controls 1 of 18).
The variant T28E/R100Q/A101T [GPLM_Gen] showed 4.1 nM (6 of 6 replicates; controls 0 of 18).
The variant T28V/S31E/R100E [GPLM_Gibbs] showed 5.6 nM (4 of 6 replicates; controls 0 of 18).
The variant T28E/R100H/A101V/S107T [GP_Gibbs] showed 2.2 nM (6 of 6 replicates; controls 0 of 18).
The variant T28S/G61K/R100Q [GPLM_Gen] showed 3.4 nM (6 of 6 replicates; controls 1 of 18).
The variant G61S/A102G/G103M [Rand] showed 300 nM (1 of 6 replicates; controls 0 of 18).
The variant N30E/S53A/D106L [GPLM_HC] showed no signal (0 of 6 replicates; controls 0 of 18).
The variant T28D/R56W/G61T/A101Q [GP_Gibbs] showed 14 nM (6 of 6 replicates; controls 0 of 18).
The variant T28S/G61D/R100Q/A101T [GPLM_Gen] showed 910 pM (6 of 6 replicates; controls 1 of 18).
The variant N30S/S31K/K65R/R100K [Ctrl] showed 110 nM (1 of 6 replicates; controls 0 of 18).
The variant F27E/G61L/K65R [Ctrl] showed 11 nM (1 of 6 replicates; controls 0 of 18).

4 of these entries, quoted again:

| changes | group | apparent Kd | seen in | signal with controls |
|---|---|---|---|---|
| T28D/A101K/D106E | GP_HC | 180 nM | 3/6 | 0/18 |
| T28E/S53A/R100F | GPLM_Gen | 1.3 nM | 6/6 | 0/18 |
| T28G/S31E/G61T/A101T | GPLM_Gen | 99 pM | 5/6 | 0/18 |
| G26T/A101N | Ctrl | no signal | 0/6 | 0/18 |